Assay: in vitro
Conditions: human

| Compound | IC50 at 48 h [µM] |
| --- | --- |
| COC(C)(OC)C(N)P(=O)(OC(C)C)OC(C)C (stereo not drawn) [Compound 4e, Diisopropyl (1-amino-2,2-dimethoxypropyl)phosphonate] | > 50 |
| CCOP(=O)(OCC)C(N)C(C)(OC)OC (stereo not drawn) [Compound 4f, Diethyl (1-amino-2,2-dimethoxypropyl)phosphonate] | > 50 |
| C=C(Sc1ccccc1)C(N)P(=O)(OCC)OCC (stereo not drawn) [Compound 15e, Diethyl [1-amino-2-(phenylthio)allyl]phosphonate] | > 50 |

From paper PMC7435673, “Synthesis of α-Aminophosphonic Acid Derivatives Through the Addition of O- and S-Nucleophiles to 2H-Azirines and Their Antiproliferative Effect on A549 Human Lung Adenocarcinoma Cells” (Molecules, 2020)
